The values below come from paper PMC6728138, “Quantitative mapping of protein-peptide affinity landscapes using spectrally encoded beads” (eLife, 2019).

Values joined by “and” are separate entries in the source; they are usually repeats but may differ in a detail not shown here. Identical values can stand only once.

Experiment [1] concerns the target T1, calcineurin (CN) (Homo sapiens, UniProt Q08209).
T1 construct: human calcineurin A isoforms (truncated at residue 400); made in house; host or cells: E. coli BL21 (DE3)
Kind of experiment: MRBLE-pep calcineurin binding assay (concentration-dependent). To be noted: for CN binding in words: 'Triplicate low' dataset; for Kd: bold value over the codes, read-out: kd, 'Triplicate high' library. On the procedure: MRBLEs were prepared by transferring a 20 μL aliquot from a 600 μL suspension (∼3000–8000 beads depending on pellet size) to a 100 μL PCR strip (20 μL for each CN concentration), exchanging buffer via 3 cycles of iterative pelleting, decanting, and resuspension with 0.1% PBST containing 5% BSA, pH = 7.5 (100 μL), and then left mixing at ∼5 °C on a rotator in the same wash buffer overnight (∼14 hr). MRBLEs were then buffer exchanged once again with CN binding buffer (50 mM Tris pH = 7.5, 150 mM NaCl, 0.1% TWEEN 20) via three iterative cycles of pelleting, decanting, and resuspension.
After incubation, MRBLEs were pelleted, decanted, and washed once with 0.1% PBST (100 μL). After a final round of pelleting and decanting, 20 μL of 0.1% PBST was added and the beads were transferred to a quartz microscope slide for imaging.
The affinity ( Kd ) for each peptide in a MBRLE library was determined via a two-step nonlinear regression using a single-site binding model:(1) Ii=(Imax[CNtotal])/(Kd,i+[CNtotal]) where Ii is the median measured fluorescence intensity for each peptide, Kd,i is the dissociation constant for that interaction, [ CNtotal ] is total CN concentration, and Imax is a global variable representing the fluorescence intensity once MRBLE-pep beads are saturated. First, we determined the global saturation value ( Imax ), by globally fitting the top 80% highest-intensity MRBLE codes. Next, we globally fit the entire data set using this Imax value to yield an estimated absolute affinity ( Kd ) for all peptides in the library. […] Differences in binding affinity were calculated relative to a reference peptide using the standard equation:(2) ΔΔG=RTln(Kd,i/Kd,ref)
Next, we used this reference value and calculated differences in binding affinity ( ΔΔG ) to estimate absolute Kd values for each peptide within the calibration and full calibration libraries (Figure 2—source data 1, Figure 2—source data 2, Figure 5—source data 1, Figure 5—source data 2, Figure 5—source data 3, Figure 5—source data 4).

The target of experiment [2] is calcineurin (CN). To be noted: ref Supplementary file 1; read-out: Kd Range; cited from earlier work. An excerpt: Supplement elife-40499-supp1.docx, table 1 | column: Kd Range (µM) || Figure 2. MRBLEs allow quantitative measurement of CN-SLiM interactions in high-throughput. (A) Sequence alignment for previously identified CN PxIxIT binding sites (see Supplementary file 1 for references). (B) Crystal structure showing CN heterodimer bound to the A238L inhibitor including both PxIxIT and LxVP binding sites (PDB ID: 4F0Z). […] Each peptide was synthesized on three different MRBLE codes (light grey lines); affinities were ... || Figure 5. Calibrated in vitro affinities for a range of peptides. (A) In vitro measurements of binding affinities for high-affinity binders identified by combining favorable residues. (B) Correlation between measured ΔΔG values for a full technical replicate (new bead synthesis, new peptide synthesis, and new calcineurin protein purification) for the library shown in (A). […] Figure 5—source data 1. Concentration-dependent binding for calibration library, replicate 1. Figure 5 ... || (+ 1 further places)

Experiment [3] concerns NFAT-driven luciferase activity in HEK293T cells. Briefly: In vivo calcineurin activity assay (NFAT dual luciferase reporter). It is filed as cell-based. The source says:
The ultimate goal of mapping CN-SLiM binding energy landscapes is to improve understanding of CN target substrate recognition and enable rational design of in vivo inhibitors. To test the degree to which in vitro MRBLE-pep affinities predict in vivo inhibition, we used a previously developed dual luciferase reporter assay to assess the activity of the NFAT2 transcription factor in HEK293T cells (Figure 6A) ([Grigoriu et al., 2013]). NFAT2 must be dephosphorylated by CN to accumulate in the nucleus, where it activates transcription of its target genes, and this interaction can be inhibited by peptides or small molecules that binds to CN. Reduction of NFAT2-dependent transcriptional activity upon expression of a competing PxIxIT peptide therefore reflects, quantitatively, the affinity of the inhibitor peptide for CN. Candidate PxIxIT inhibitors were co-expressed as GFP-fusion proteins within cells to enhance their stability and facilitate direct measurement of inhibitor concentrations.
PxIxIT peptides were fused to eGFP in pEGFPc1 vector. HEK293T cells were transfected with pEGFPc1 clones, pNFAT-Luc and CMV-Renilla in a 6-well plate format. 18 hr post transfection, 1μM FK506 or DMSO (vehicle) was added to the media as needed. 36 hr post transfection, cells were treated with 1 mM Ionomycin and 1 mM phorbol 12,13 di-butyrate to activate calcineurin and AP-1 (via PKC) respectively. 6 hr after pathway activation, cells were collected, washed in PBS and re-suspended in DMEM media. 80% of the cells were used to measure luciferase activity and renilla using the Dual-Glo assay system (Promega) with three technical replicates. The remaining cells were frozen and stored at −80°C. Cell lysates were prepared in RIPA buffer. 15–20 μg of lysate was analyzed by Western for expression of GFP. GFP signal was normalized to either actin or tubulin. Luciferase activity (normalized to renilla expression) was further normalized to eGFP expression. Data represent at least three experimental replicates.
In general terms: A reporter such as luciferase makes a cellular process visible.

`CC[C@H](C)[C@H](NC(=O)[C@H](CCCNC(=N)N)NC(=O)[C@@H]1CCCN1C(=O)[C@H](CO)NC(=O)[C@H](CC(C)C)NC(=O)CNC(=O)[C@H](CO)NC(=O)[C@H](C)N)C(=O)N[C@@H](CCC(=O)O)C(=O)N[C@H](C(=O)N[C@H](C(=O)N1CCC[C@H]1C(=O)N[C@@H](CO)C(=O)N[C@@H](Cc1c[nH]cn1)C(=O)N[C@@H](CCC(=O)O)C(=O)N[C@@H](CC(C)C)C(N)=O)[C@@H](C)O)[C@@H](C)CC`: the “CN binding in words” value at calcineurin (CN) [1] is “measurable binding”. Also, the Kd (usually the equilibrium constant for the complex coming apart) at calcineurin (CN) [2] is 6 µM.
“PVIVIT [PVIVIT PxIxIT peptide fused to eGFP, expressed in HEK293T cells]”: the “CN binding in words” value at calcineurin (CN) [1] was “strong binding”. The “NFAT-driven luciferase activity, normalized, relative to empty vector (Data)” value came to 0.1127 in experiment [3] (all other peptides in vivo experiment, replicate 1); 0.1248 in experiment [3] (all other peptides in vivo experiment, replicate 2); 0.1641 in experiment [3] (all other peptides in vivo experiment, replicate 3); 0.14 in experiment [3] (initial in vivo experiment, replicate 2, FK506 1 μM); 0.1434 in experiment [3] (initial in vivo experiment, replicate 3, FK506 1 μM). Besides, the “NFAT-driven luciferase activity, normalized to renilla and eGFP expression, relative to empty vector (Data)” value in experiment [3] (initial in vivo experiment, replicate 1, FK506 1 μM) came out at 0.1885. The Kd on calcineurin (CN) [2] is 0.5 µM.
In the case of `CC[C@H](C)[C@H](NC(=O)CNC(=O)[C@H](C)N)C(=O)N[C@H](C(=O)N1CCC[C@H]1C(=O)N[C@H](C(=O)N[C@@H](Cc1c[nH]cn1)C(=O)N[C@H](C(=O)N[C@H](C(=O)N[C@@H](Cc1c[nH]cn1)C(=O)N[C@@H](C)C(=O)N1CCC[C@H]1C(=O)NCC(=O)N[C@@H](CCC(=O)O)C(=O)N[C@@H](CCC(=O)O)C(N)=O)[C@@H](C)O)C(C)C)[C@@H](C)CC)C(C)C` [SCRAMBLED], the ddG_PKIVIT on calcineurin (CN) [1] is 1.239 and 2.254 and 1.287 and 2.444. Moreover, the “CN binding in words” value on calcineurin (CN) [1] is listed as “no binding”. Also, the MED on calcineurin (CN) [1] (median bead signal at Conc 63 (Conc_uM 0.063), N 27, file calibration_redo.csv) is reported as 209.5; at calcineurin (CN) [1] (median bead signal at Conc 125 (Conc_uM 0.125), N 13, file calibration_redo.csv), 279.5; at calcineurin (CN) [1] (median bead signal at Conc 250 (Conc_uM 0.25), N 15, file calibration_redo.csv) it was 362.5; on calcineurin (CN) [1] (median bead signal at Conc 500 (Conc_uM 0.5), N 23, file calibration_redo.csv) it was 494.5; on calcineurin (CN) [1] (median bead signal at Conc 1000 (Conc_uM 1), N 28, file calibration_redo.csv) it was 538; at calcineurin (CN) [1] (median bead signal, Conc 32 (Conc_uM 0.032), file full_calibration2.csv, N = 85 beads), 116. Moreover, the MED on calcineurin (CN) [1] (median bead signal, Conc 32 (Conc_uM 0.032), file full_calibration.csv, N = 23 beads) turned out to be 135; on calcineurin (CN) [1] (median bead signal, Conc 63 (Conc_uM 0.063), file calibration2.csv, N = 78 beads), 148.25; at calcineurin (CN) [1] (median bead signal, Conc 63 (Conc_uM 0.063), file full_calibration.csv, N = 13 beads), 175; at calcineurin (CN) [1] (median bead signal, Conc 125 (Conc_uM 0.125), file calibration2.csv, N = 112 beads) it was 147.75; on calcineurin (CN) [1] (median bead signal, Conc 125 (Conc_uM 0.125), file full_calibration2.csv, N = 94 beads) it was 95; at calcineurin (CN) [1] (median bead signal, Conc 250 (Conc_uM 0.25), file calibration2.csv, N = 75 beads) it was 137. Besides, the MED on calcineurin (CN) [1] (median bead signal, Conc 250 (Conc_uM 0.25), file full_calibration2.csv, N = 79 beads) stood at 87.5; on calcineurin (CN) [1] (median bead signal, Conc 250 (Conc_uM 0.25), file full_calibration.csv, N = 32 beads), 221.75; on calcineurin (CN) [1] (median bead signal, Conc 500 (Conc_uM 0.5), file calibration2.csv, N = 93 beads), 148; on calcineurin (CN) [1] (median bead signal, Conc 500 (Conc_uM 0.5), file full_calibration.csv, N = 21 beads), 322; on calcineurin (CN) [1] (median bead signal, Conc 1000 (Conc_uM 1), file calibration2.csv, N = 104 beads), 137.75; at calcineurin (CN) [1] (median bead signal, Conc 1000 (Conc_uM 1), file full_calibration2.csv, N = 90 beads), 50.25. The MED at calcineurin (CN) [1] (median bead signal, Conc 1000 (Conc_uM 1), file full_calibration.csv, N = 30 beads) was determined as 343; on calcineurin (CN) [1] (median bead signal, Conc 2000 (Conc_uM 2), file full_calibration2.csv, N = 57 beads), 10.
On to `CC[C@H](C)[C@H](NC(=O)[C@@H](NC(=O)[C@@H](NC(=O)[C@@H](NC(=O)[C@@H]1CCCN1C(=O)[C@@H](N)Cc1c[nH]cn1)C(C)C)[C@@H](C)CC)C(C)C)C(=O)N[C@@H](CC(N)=O)C(=O)NCC(=O)N1CCC[C@H]1C(=O)N[C@@H](Cc1c[nH]cn1)C(N)=O`, for which the Kd at calcineurin (CN) [1] is 26.9 ± 1.34 µM.
On to `CC[C@H](C)[C@H](NC(=O)[C@H](CCCNC(=N)N)NC(=O)[C@@H]1CCCN1C(=O)[C@H](CO)NC(=O)[C@H](CCC(=O)O)NC(=O)[C@H](CC(C)C)NC(=O)[C@H](C)NC(=O)[C@@H]1CCCN1)C(=O)N[C@@H](CCC(=O)O)C(=O)N[C@H](C(=O)N[C@H](C(=O)N[C@@H](CO)C(=O)N[C@@H](CS)C(=O)N[C@@H](CC(C)C)C(=O)NCC(=O)N[C@@H](CC(C)C)C(N)=O)[C@@H](C)O)[C@@H](C)CC`, for which the Kd on calcineurin (CN) [1] was 57.9 ± 22.6 µM.
Consider `CC[C@H](C)[C@H](NC(=O)[C@H](C)NC(=O)[C@@H](NC(=O)[C@@H]1CCCN1C(=O)[C@H](CCC(=O)O)NC(=O)[C@H](CCSC)NC(=O)[C@H](CCCNC(=N)N)NC(=O)[C@@H](N)CCCCN)[C@@H](C)CC)C(=O)N[C@H](C(=O)N[C@H](C(=O)N[C@H](C(=O)N[C@@H](CC(=O)O)C(=O)N[C@H](C(=O)N[C@@H](CCC(=O)O)C(=O)N[C@H](C(=O)N[C@@H](CO)C(N)=O)[C@@H](C)CC)[C@@H](C)O)[C@@H](C)O)[C@@H](C)CC)[C@@H](C)CC`, for which the “CN binding in words” value at calcineurin (CN) [1] is reported as “measurable binding”. At calcineurin (CN) [2], the Kd is 0.4 to 1.5 µM.
